From article PMC3030600, “Characterizing Ligand-Gated Ion Channel Receptors with Genetically Encoded Ca^++ Sensors” (PLoS ONE, 2011)

By UniProt entry, the sequences of proteins in these tests, tags left out. Residues count along the entry.
UniProt P17787, 26-502: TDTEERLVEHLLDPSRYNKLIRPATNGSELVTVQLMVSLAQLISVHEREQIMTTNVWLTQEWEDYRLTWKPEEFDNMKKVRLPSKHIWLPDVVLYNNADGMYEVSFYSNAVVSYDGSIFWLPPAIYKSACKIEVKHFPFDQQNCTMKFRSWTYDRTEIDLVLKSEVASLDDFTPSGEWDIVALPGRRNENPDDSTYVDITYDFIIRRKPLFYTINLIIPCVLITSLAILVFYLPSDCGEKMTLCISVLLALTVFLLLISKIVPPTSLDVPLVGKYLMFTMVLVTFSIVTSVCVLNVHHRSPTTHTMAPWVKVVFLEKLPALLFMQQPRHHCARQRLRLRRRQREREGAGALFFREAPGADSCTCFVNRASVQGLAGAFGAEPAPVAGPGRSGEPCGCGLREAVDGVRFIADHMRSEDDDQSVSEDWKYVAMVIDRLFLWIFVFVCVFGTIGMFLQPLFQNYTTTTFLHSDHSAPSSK
UniProt P43681, 29-627: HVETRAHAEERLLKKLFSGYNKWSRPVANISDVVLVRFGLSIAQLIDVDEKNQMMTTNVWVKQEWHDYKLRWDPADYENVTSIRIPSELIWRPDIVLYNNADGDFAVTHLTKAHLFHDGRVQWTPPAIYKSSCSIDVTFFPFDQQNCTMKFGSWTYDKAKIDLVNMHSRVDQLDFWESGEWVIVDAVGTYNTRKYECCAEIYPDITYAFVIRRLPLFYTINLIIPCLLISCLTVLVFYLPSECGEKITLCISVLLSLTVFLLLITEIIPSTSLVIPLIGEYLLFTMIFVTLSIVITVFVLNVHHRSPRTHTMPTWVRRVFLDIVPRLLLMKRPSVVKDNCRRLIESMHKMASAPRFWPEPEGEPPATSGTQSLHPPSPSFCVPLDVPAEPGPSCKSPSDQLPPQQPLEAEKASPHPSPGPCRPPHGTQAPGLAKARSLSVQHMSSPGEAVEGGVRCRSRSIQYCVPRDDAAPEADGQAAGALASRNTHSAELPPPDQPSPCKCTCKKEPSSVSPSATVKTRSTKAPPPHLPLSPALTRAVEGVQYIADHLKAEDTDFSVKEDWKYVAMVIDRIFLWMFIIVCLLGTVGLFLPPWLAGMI
UniProt P23979, 24-489: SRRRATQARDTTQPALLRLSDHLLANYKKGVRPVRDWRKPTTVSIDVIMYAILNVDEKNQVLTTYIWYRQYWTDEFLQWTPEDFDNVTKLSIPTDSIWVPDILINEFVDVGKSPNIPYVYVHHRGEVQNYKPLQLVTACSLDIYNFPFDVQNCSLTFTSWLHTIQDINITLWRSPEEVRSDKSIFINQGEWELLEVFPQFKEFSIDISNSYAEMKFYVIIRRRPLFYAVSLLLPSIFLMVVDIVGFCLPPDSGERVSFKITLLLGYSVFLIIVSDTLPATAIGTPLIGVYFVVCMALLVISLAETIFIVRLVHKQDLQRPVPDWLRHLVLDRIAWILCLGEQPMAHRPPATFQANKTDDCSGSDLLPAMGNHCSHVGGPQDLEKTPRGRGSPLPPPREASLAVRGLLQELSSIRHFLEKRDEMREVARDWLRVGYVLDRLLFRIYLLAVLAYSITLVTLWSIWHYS

What was measured:
[1] = target: T1, human α4β2 nicotinic acetylcholine receptors (Homo sapiens, UniProt P17787+P43681); test: α4β2-nAChR CNiFER FRET Flex assay; format: cell-based
T1 construct: expressed in transfected cells; the CNiFER line also carries TN-XXL

[2] = target: mouse 5-HT3A serotonin receptors (Mus musculus, UniProt P23979); test: 5-HT3A CNiFER FRET Flex assay; format: cell-based; conditions: vs 5-HT
Procedure: Cells were cultured in 10 cm plates with DMEM (Mediatech, Manassas, VA) supplemented with 10% FBS (Gemini Bio-Products, West Sacramento, CA; Atlanta Biologicals, Lawrenceville, GA) and 1% Glutamine (Invitrogen), and incubated at 37°C with 10% CO2. Cells were selected at ∼70% confluency and plated the day before using 100 µl volumes per well into black, transparent flat-bottom, TC treated 96-well plates (Thermo, Waltham, MA; E&K, Greiner Campbell, CA). Plates were removed from the incubator the next day and the media was replaced with 100 µl of artificial cerebral spinal fluid (aCSF) [containing 121 mM NaCl, 2.4 mM Ca^2+, 1.3 mM Mg^2+, 5 mM KCl, 26 mM NaHCO3, 1.2 mM Na2HPO4, 10 mM glucose, 5 mM Hepes Na^+, pH 7.4]. For all assays performed on α7-nAChR CNiFERs 10 µM of the PAM, PNU-120596 (Tocris, Ellisville, MO), was prepared in aCSF. […] Mean peak FRET ratios calculated from replicates were exported and plotted against agonist concentrations using Graphpad Prism 4 (Carlsbad, CA). […]
To measure potencies of competitive antagonists, three concentration-response curves with different antagonist concentrations were compared to a control curve (without antagonist). […] The Schild Ka value for competitive antagonists was calculated from the x-intercept at y = 0, as the –Log (Ka), [38]. […]

mode of antagonism [2] | Compound | Schild Slope [1] | mode of antagonism (Schild analysis) [1]
– | CO[C@H]1CC=C2CCN3CCC4=C(CC(=O)OC4)[C@]23C1 [DHβE, dihydro-beta-erythroidine] | −0.9±0.1 | acts competitively
greater non-competitive component | CN1C2CCCC1CC(NC(=O)c1nn(C)c3ccccc13)C2 (stereo not drawn) [granisetron] | – | –
